We go through ten compounds from ChEMBL document CHEMBL3232723, “Design, synthesis and biological evaluation of novel tetrahydroacridine pyridine- aldoxime and -amidoxime hybrids as efficient uncharged reactivators of nerve agent-inhibited human acetylcholinesterase” (2014).

By UniProt entry, the sequences of proteins in these tests, tags left out. Where a name states a change or a piece, a line headed by the entry shows the natural chain unless it says otherwise.
UniProt P22303: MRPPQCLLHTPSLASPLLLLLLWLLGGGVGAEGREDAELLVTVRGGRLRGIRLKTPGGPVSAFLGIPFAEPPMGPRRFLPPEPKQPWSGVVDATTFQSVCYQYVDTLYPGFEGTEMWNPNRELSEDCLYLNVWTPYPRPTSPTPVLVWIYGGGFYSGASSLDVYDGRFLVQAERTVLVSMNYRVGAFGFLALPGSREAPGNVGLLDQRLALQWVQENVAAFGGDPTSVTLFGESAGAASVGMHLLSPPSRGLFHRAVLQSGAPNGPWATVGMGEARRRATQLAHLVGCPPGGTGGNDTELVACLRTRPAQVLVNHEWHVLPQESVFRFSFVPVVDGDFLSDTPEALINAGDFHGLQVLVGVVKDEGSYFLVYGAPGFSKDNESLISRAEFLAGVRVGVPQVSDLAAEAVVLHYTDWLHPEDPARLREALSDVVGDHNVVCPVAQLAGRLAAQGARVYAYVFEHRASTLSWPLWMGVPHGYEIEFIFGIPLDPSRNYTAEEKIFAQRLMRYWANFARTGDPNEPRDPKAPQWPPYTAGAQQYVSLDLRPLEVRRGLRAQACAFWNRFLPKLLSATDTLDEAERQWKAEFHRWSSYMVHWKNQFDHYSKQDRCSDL

For test [1], the target named is Acetylcholinesterase (Homo sapiens) (UniProt P22303). In words: Reactivation of methylphosphonothioate VX-inhibited recombinant human AChE assessed as maximal reactivation rate constant measured up to 10 mins by Ellman's method. In general terms: In Ellman's method for cholinesterases, released thiocholine reacts with DTNB.
For test [2] the target is unchanged. Kind of test: Reactivation of paraoxon-inhibited recombinant human AChE assessed as apparent reactivation rate measured up to 10 mins by Ellman's method.
Test [3] has the same target. Kind of test: Reactivation of paraoxon-inhibited recombinant human AChE assessed as apparent reactivation rate at 200 uM measured up to 10 mins by Ellman's method.
Test [4] has the same target. In words: Reactivation of methylphosphonothioate VX-inhibited recombinant human AChE assessed as apparent reactivation rate measured up to 10 mins by Ellman's method.
For test [5] the target is unchanged. In words: Reactivation of methylphosphonothioate VX-inhibited recombinant human AChE assessed as apparent reactivation rate at 200 uM measured up to 10 mins by Ellman's method.
The target is the same in test [6]. Kind of test: Reactivation of paraoxon-inhibited recombinant human AChE assessed as maximal reactivation rate constant measured up to 10 mins by Ellman's method.
The target is the same in test [7]. In words: Reactivation of methylphosphonothioate VX-inhibited recombinant human AChE assessed as apparent reactivation rate at 1 uM measured up to 10 mins by Ellman's method.
Test [8] has the same target. In words: Reactivation of tabun-inhibited recombinant human AChE assessed as maximal reactivation rate constant measured up to 10 mins by Ellman's method.

Structures are written as SMILES.

For the compound `O/N=C/c1ncccc1O`, the K in test [1] stood at 0.5 min⁻¹.
On to `NC(=O)c1cc[n+](CCC[n+]2ccccc2/C=N/O)cc1`, for which the K in test [1] was 0.44 min⁻¹.
In the case of `CN(CCCNc1c2c(nc3ccccc13)CCCC2)Cc1ccnc(/C(N)=N/O)c1O`, the K in test [2] was less than 0.01 min⁻¹; in test [1], 0.032 min⁻¹; in test [3], 0.0043 min⁻¹.
Regarding `O/N=C/c1nc(CCCCCSc2c3c(nc4ccccc24)CCCC3)ccc1O`, the K in test [4] is less than 0.01 min⁻¹; in test [5], 0.0076 min⁻¹.
Regarding `O/N=C/c1nc(CCCCNc2c3c(nc4ccccc24)CCCC3)ccc1O`, the K in test [6] was 0.111 min⁻¹; in test [1] it was 0.72 min⁻¹.
Turning to `O/N=C/c1ncc(CCCCCNc2c3c(nc4ccccc24)CCCC3)cc1O`, the K is less than 0.01 min⁻¹ in test [4] and 0.0038 min⁻¹ in test [7].
On to `N/C(=N\O)c1ncccc1O`, for which the K in test [1] was 0.08 min⁻¹.
Regarding `O/N=C/c1nc(CCCCCNc2c3c(nc4ccccc24)CCCC3)ccc1O`, the K in test [6] is 0.0228 min⁻¹; in test [1] it was 0.56 min⁻¹; in test [8], 0.0075 min⁻¹.
For the compound `CN(CCNc1c2c(nc3ccccc13)CCCC2)Cc1ccnc(/C(N)=N/O)c1O`, the K in test [1] stood at 0.0094 min⁻¹.
For `O/N=C/c1cc[n+](CCC[n+]2ccc(/C=N/O)cc2)cc1`, the K in test [6] came out at 0.34 min⁻¹.
